Tested on: EGFR Q787Q A/A cell lines
Test: Response to gefitinib of EGFR Q787Q G/G (WT) and A/A cell lines
Format: cell-based
Settings: cell lines with EGFR SNP Q787Q A/A

For `COc1cc2ncnc(Nc3ccc(F)c(Cl)c3)c2cc1OCCCN1CCOCC1` [gefitinib], the response to gefitinib was “sensitive to epidermal growth factor receptor tyrosine kinase inhibitors”.

Reference: US12642838B2, “Method of modulating sensitivity to tyrosine kinase inhibitor” (SINGAPORE HEALTH SERVICES PTE LTD, priority 2020, dated 2026)
